Experimental findings from PubChem BioAssay AID940 (Emory University Molecular Libraries Screening Center, 2007) are described below.

Chains of the proteins cited; added tags and fusions are not shown.
UniProt P43116, whole entry: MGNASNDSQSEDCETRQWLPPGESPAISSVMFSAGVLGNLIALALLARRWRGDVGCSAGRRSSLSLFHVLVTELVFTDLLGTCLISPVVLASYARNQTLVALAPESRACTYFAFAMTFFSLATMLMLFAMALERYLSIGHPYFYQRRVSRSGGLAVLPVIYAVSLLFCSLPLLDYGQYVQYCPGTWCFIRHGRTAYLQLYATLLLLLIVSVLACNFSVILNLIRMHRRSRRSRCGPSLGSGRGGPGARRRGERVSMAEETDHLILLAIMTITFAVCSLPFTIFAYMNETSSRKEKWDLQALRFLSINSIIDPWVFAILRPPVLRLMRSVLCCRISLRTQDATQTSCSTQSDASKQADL

The list shows a part of the results, in another mix than the full data. Some results for these compounds are left out of this collection, so the calls shown say nothing about other tests. The source made the active and inactive calls.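 The calls were made as follows: active = compounds whose cAMP rise, as percent of the full-agonist control response, exceeds 60; inactive = the rest.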

This test deals with Prostaglandin E2 receptor EP2 subtype (Homo sapiens) (UniProt P43116). Description: EP2 receptor modulators, cAMP readout, primary screen, cell-based, HTRF cAMP, PGE2 stimulation (AID 940).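 Also: rat C6 glioma line stably carrying human EP2 under a CMV promoter; the protocol text gives 20 µM as final concentration; 100% = response of wells given 1 µM PGE2.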 To be noted: EP2-expressing cells, cAMP HTRF FRET, PGE2 co-stimulation; at 25 µM; stronger effect = higher value.
On to `COc1ccc(Br)c(C(=O)NCC2(N3CCCCC3)CCCCC2)c1`, for which the induction was inactive: 6.7%.

With `CN(C)c1cccc(C(=O)NCC2(N(C)C)CCCCC2)c1`, the induction is inactive: 15.1%.

Regarding `CN1CCC[C@H](OC(=O)[C@](O)(c2ccccc2)C2CCCC2)C1`, the induction was inactive: 0.89%.

In the case of `O=C(OC1CN2CCC1CC2)C(CO)(c1ccccc1)c1ccccc1` (stereo not drawn), the induction is inactive: 0.02%.

For `C=C(C)C#C[C@@](O)(C(=O)OC1CCN(C)CC1)c1ccccc1`, the induction was inactive: 4.64%.

Regarding `COc1cccc(C(=O)NCC2(N3CCCCC3)CCCCC2)c1`, the induction is inactive: 20.7%.

Consider `C=CCN1CCN(CCOC(=O)C(O)(c2ccccc2)c2ccccc2)CC1`, for which the induction is inactive: 20.8%.

`CCN1CCCC(OC(=O)C2(O)c3ccccc3C=Cc3ccccc32)C1` (stereo not drawn): the induction was inactive: -4.54%.

On to `CN(C)C1CCCC1OC(=O)C(O)(c1ccccc1)c1ccccc1` (stereo not drawn), for which the induction was inactive: 13.2%.

For the molecule `Cc1ccccc1C(=O)NCC1(N2CCCCC2)CCCCC1`, the induction was inactive: -19.2%.

As for `CCN(CC)CC(C)C(C)OC(=O)C(O)(c1ccccc1)c1ccccc1` (stereo not drawn), the induction was inactive: 14.3%.

As for `CC(C)N1C(=O)CC2(CCN(CCOC(=O)C(O)(c3ccccc3)c3ccccc3)CC2)C1=O`, the induction is inactive: 4.69%.

In the case of `O=C(NCC1(N2CCCCC2)CCCCC1)c1cc([N+](=O)[O-])ccc1Cl`, the induction is inactive: -8.27%.
